Source: ChEMBL document CHEMBL3352706, “Novel cyclic biphalin analogue with improved antinociceptive properties” (2014)
Calls of active or inactive are those of the source. The rule behind the calls is not given here.

By UniProt entry, the sequences of proteins in these tests, tags left out. Where a name states a change or a piece, a line headed by the entry shows the natural chain unless it says otherwise.
UniProt P33535, whole entry, looked up: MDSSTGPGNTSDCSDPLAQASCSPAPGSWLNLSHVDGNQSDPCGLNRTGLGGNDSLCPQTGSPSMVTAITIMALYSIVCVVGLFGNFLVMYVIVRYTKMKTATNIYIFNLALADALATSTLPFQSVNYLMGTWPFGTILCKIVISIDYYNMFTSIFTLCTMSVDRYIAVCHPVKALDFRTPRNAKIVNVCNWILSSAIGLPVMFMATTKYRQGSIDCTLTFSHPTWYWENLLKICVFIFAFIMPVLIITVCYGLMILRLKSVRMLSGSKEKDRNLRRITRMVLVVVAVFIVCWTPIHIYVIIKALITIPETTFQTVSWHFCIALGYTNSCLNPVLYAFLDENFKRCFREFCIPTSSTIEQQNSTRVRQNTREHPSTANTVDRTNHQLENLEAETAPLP
UniProt P34975: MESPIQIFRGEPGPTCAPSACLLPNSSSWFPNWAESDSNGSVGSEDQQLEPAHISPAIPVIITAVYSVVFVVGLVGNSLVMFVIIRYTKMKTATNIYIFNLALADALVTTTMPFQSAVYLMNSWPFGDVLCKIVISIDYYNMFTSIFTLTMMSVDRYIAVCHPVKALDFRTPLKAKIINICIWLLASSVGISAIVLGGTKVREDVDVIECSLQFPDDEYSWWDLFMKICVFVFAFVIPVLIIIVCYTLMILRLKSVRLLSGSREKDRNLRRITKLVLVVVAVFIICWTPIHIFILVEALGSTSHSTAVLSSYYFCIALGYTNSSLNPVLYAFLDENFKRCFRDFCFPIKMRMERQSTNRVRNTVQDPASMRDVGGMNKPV
UniProt P32300, whole entry, looked up: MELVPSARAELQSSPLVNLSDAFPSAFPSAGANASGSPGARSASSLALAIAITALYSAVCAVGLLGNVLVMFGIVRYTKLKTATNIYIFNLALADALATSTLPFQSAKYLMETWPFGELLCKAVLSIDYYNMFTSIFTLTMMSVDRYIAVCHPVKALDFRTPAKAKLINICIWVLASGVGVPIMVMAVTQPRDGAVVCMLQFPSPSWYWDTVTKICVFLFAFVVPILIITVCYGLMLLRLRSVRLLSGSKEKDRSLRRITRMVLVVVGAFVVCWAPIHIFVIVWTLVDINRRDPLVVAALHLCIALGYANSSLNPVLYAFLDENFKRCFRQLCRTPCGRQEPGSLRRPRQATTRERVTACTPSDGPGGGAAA
UniProt P97266, whole entry, looked up: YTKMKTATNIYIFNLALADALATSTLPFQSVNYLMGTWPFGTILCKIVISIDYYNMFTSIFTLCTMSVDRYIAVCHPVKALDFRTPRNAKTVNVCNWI

Experiments:
[1] = target: Mu-type opioid receptor (Rattus norvegicus) (UniProt P33535); assay: Agonist activity at rat mu opioid receptor expressed in CHO cells by [35S]GTPgammaS binding assay relative to untreated control
[2] = target: Kappa-type opioid receptor (Rattus norvegicus) (UniProt P34975); assay: Agonist activity at rat kappa opioid receptor expressed in CHO cells by [35S]GTPgammaS binding assay relative to untreated control
[3] = target: Delta-type opioid receptor (Mus musculus) (UniProt P32300); assay: Agonist activity at mouse delta opioid receptor expressed in CHO cells by [35S]GTPgammaS binding assay relative to untreated control
[4] = target: Delta-type opioid receptor (Mus musculus) (UniProt P32300); assay: Agonist activity at delta opioid receptor in ICR mouse vas deferens assessed as inhibition of electrically-induced smooth muscle contraction at 1 mM
[5] = target: Mu-type opioid receptor (Cavia porcellus) (UniProt P97266); assay: Agonist activity at mu opioid receptor in Hartley guinea pig ileum longitudinal muscle myenteric plexus assessed as inhibition of electrically-induced smooth muscle contraction at 1 mM
Mus musculus [6] = assay: Antinociceptive activity in CD1 mouse assessed as reduction in thermal nociception by at 0.1 nmol, icv measured 15 mins post dose by hot plate test
Mus musculus [7] = assay: Antinociceptive activity in CD1 mouse assessed as reduction in thermal nociception by measuring tail-flick latency at 0.1 nmol, icv measured 15 mins post dose by tail-flick assay
Mus musculus [8] = assay: Antinociceptive activity in CD1 mouse assessed as reduction in thermal nociception by at 1500 nmol, iv by hot plate test
Mus musculus [9] = assay: Antinociceptive activity in CD1 mouse assessed as reduction in thermal nociception by at 1500 nmol, iv by tail flick test

Q: Which Emax [1] does the source give for `CC1(C)SSC(C)(C)[C@H](NC(=O)[C@@H](N)Cc2ccc(O)cc2)C(=O)NCC(=O)N[C@@H](Cc2ccccc2)C(=O)NNC(=O)[C@H](Cc2ccccc2)NC(=O)CNC(=O)[C@H]1NC(=O)[C@@H](N)Cc1ccc(O)cc1` here?
A: 162%

Q: And the Emax [2]?
A: 124%

Q: What about the Emax [3] of the same compound?
A: 143%

Q: What about the inhibition [4] of the same compound?
A: 21%

Q: And the inhibition [5]?
A: 4%

Q: Which Emax [1] does the source give for `C[C@@H](NC(=O)[C@@H](N)Cc1ccc(O)cc1)C(=O)NCC(=O)N[C@@H](Cc1ccccc1)C(=O)NNC(=O)[C@H](Cc1ccccc1)NC(=O)CNC(=O)[C@@H](C)NC(=O)[C@@H](N)Cc1ccc(O)cc1` here?
A: 178%

Q: What about the Emax [2] of the same compound?
A: 109%

Q: What about the Emax [3] of the same compound?
A: 220%

Q: What about the inhibition (Mus musculus [6]) of the same compound?
A: Active

Q: And the inhibition (Mus musculus [7])?
A: Active

Q: Which inhibition (Mus musculus [8]) does the source give for `CC1(C)SSC(C)(C)[C@@H](NC(=O)[C@@H](N)Cc2ccc(O)cc2)C(=O)NCC(=O)N[C@@H](Cc2ccccc2)C(=O)NNC(=O)[C@H](Cc2ccccc2)NC(=O)CNC(=O)[C@@H]1NC(=O)[C@@H](N)Cc1ccc(O)cc1` here?
A: Active

Q: What about the inhibition (Mus musculus [9]) of the same compound?
A: Active

Q: And the Emax [1]?
A: 474%

Q: And the Emax [2]?
A: 127%

Q: And the Emax [3]?
A: 150%

Q: With `CN(C(=O)Cc1ccccc1)[C@H]1CC[C@@]2(CCCO2)C[C@@H]1N1CCCC1` as the compound, how does the Emax [2] read?
A: 202%

Q: Which Emax [3] does the source give for `CC[C@H](C)[C@H](NC(=O)[C@H](CCC(=O)O)NC(=O)[C@H](Cc1ccccc1)NC(=O)[C@H](C)NC(=O)[C@@H](N)Cc1ccc(O)cc1)C(=O)N[C@H](C(=O)NCC(=O)O)[C@@H](C)CC` here?
A: 143%
